pKd: −log10 of the molar value.
Molecular target: E3 ubiquitin-protein ligase Mdm2 (Homo sapiens, UniProt Q00987)
Experiment: Binding affinity to human MDM2 expressed in Escherichia coli expression system by using (FITC)-labeled p53 peptide based fluorescence polarization competitive assay

Chains of the proteins cited; added tags and fusions are not shown.
UniProt Q00987, whole entry: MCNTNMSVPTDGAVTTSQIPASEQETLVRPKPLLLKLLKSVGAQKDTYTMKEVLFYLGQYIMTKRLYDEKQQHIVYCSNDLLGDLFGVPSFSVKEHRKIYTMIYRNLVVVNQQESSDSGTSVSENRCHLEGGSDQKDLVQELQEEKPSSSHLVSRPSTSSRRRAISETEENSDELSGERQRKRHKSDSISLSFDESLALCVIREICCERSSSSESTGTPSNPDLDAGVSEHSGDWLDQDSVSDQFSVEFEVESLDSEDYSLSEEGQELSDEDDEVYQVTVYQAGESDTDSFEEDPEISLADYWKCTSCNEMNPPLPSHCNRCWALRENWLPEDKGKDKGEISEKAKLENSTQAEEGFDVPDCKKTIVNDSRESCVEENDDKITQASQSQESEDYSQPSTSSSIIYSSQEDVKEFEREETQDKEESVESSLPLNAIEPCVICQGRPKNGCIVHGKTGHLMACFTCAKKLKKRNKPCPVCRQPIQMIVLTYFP

Compound: CC(=O)N[C@@H](CC(C)C)CN(CC(=O)N[C@@H](Cc1ccccc1)CN(CC(=O)N[C@@H](CCC(=O)O)CN(CC(=O)N[C@@H](C)CN(CC(=O)N[C@@H](CCCCN)CN(CC(=O)N[C@@H](CC(C)C)CN(CC(=O)N[C@@H](C)CN(CC(N)=O)S(C)(=O)=O)S(=O)(=O)CC(C)C)S(C)(=O)=O)S(C)(=O)=O)S(C)(=O)=O)S(C)(=O)=O)S(=O)(=O)c1ccc(Cl)cc1
- pKd: < 5.30

— ChEMBL document CHEMBL4321882, “α-Helix-Mimicking Sulfono-γ-AApeptide Inhibitors for p53-MDM2/MDMX Protein-Protein Interactions” (J Med Chem, 2020)
